The nature of this test: Binding affinity for dopamine D2 receptor to that of dopamine D4 receptor.

For the compound `O=C(CCCN1CCC(c2ccc(Cl)cc2)CC1)c1ccc(F)cc1`, the Ratio turned out to be 0.6.

These data come from ChEMBL document CHEMBL1138643, “Haloperidol: towards further understanding of the structural contributions of its pharmacophoric elements at D2-like receptors” (Bioorg Med Chem Lett, 2004).
